Results taken from patent US7169931B2, “Cyclic compounds exhibiting thrombopoietin receptor agonism” (Shionogi & Co., Ltd., priority 2001, dated 2007).
pEC50: −log10 of the molar value.

By UniProt entry, the sequences of proteins in these tests, tags left out. Residues count along the entry.
UniProt P40238, 26-635 limits assumed: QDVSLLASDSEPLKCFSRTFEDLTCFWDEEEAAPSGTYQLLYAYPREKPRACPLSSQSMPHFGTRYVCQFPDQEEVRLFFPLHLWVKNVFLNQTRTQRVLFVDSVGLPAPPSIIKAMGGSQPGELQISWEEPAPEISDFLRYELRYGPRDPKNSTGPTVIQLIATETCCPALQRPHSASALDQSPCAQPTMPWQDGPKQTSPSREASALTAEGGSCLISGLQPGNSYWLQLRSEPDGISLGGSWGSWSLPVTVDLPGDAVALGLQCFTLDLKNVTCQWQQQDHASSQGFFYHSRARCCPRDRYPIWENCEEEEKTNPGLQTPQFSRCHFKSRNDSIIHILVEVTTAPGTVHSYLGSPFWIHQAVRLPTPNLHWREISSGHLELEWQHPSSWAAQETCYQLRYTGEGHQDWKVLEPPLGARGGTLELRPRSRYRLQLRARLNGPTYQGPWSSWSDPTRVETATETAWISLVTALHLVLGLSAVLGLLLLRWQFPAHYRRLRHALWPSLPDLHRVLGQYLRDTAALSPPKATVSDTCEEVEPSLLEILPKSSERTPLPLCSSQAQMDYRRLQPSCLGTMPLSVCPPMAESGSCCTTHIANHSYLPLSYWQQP

Target: human TPO receptor (Homo sapiens, UniProt P40238)
Assay: Thrombopoietic activity: proliferation of TPO dependent BaF/hTPOR cells (WST-1)
Details: read-out: ED50; BaF/hTPOR cell line (BaF-B03 with human TPO receptor), without IL-3; 20 hours incubation + 4 hours WST-1, absorbance 450 nm; ED50 = half concentration of the concentration showing maximum thrombopoietic activity

Row | SMILES | pEC50
1 | O=C(Nc1nc(-c2ccc(Cl)c(Cl)c2)cs1)c1ccc2sc(C(=O)O)cc2c1 | 6.23
2 | O=C(O)c1ccc2cc(C(=O)Nc3nc(-c4ccc(Cl)c(Cl)c4)cs3)sc2c1 | 6.02
3 | Cc1c(C(=O)Nc2nc(-c3ccc(Cl)c(Cl)c3)cs2)oc2ccc(C(=O)O)cc12 | 6.92
4 | O=C(Nc1nc(-c2ccc(Cl)c(Cl)c2)cs1)c1ccc2c(c1)OCCC(C(=O)O)C2 (stereo not shown) | 4.78
5 | O=C(O)C1=Cc2cc(C(=O)Nc3nc(-c4ccc(Cl)c(Cl)c4)cs3)ccc2OC=C1 | 5.25
6 | O=C(O)C1=Cc2ccc(C(=O)Nc3nc(-c4ccc(Cl)c(Cl)c4)cs3)cc2OC=C1 | 5.77
7 | O=C(O)c1cc(O)c2cc(C(=O)Nc3nc(-c4ccc(Cl)c(Cl)c4)cs3)ccc2c1 | 6.67
